By UniProt entry, the sequences of proteins in these tests, tags left out.
UniProt P35462, whole entry: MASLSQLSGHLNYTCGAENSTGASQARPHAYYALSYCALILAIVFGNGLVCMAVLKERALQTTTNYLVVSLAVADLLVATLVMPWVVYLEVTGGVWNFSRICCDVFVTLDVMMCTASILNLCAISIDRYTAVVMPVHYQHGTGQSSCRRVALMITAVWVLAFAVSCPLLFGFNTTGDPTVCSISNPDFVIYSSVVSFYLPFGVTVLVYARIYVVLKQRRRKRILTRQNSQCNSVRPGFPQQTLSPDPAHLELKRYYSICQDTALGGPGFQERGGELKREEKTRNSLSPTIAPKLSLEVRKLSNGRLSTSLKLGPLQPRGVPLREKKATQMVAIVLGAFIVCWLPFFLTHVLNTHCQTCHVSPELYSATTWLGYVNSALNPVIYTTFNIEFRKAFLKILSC

The list shows a part of the results, in another mix than the full data. Records with an inconclusive call do not appear. The source made the active and inactive calls. Cut-off read from the data, not from the text of the source: active = max response below about -50%; inconclusive = no clear call, values can overlap the other calls; inactive = above that.
These molecules were tested against D(3) dopamine receptor (Homo sapiens) (UniProt P35462) (assay: qHTS of D3 Dopamine Receptor Antagonist: qHTS). Details: D3R cells, DiscoveRx beta-arrestin luminescence, antagonist mode; active compounds read low.
From the text: D3 DARs represent a very important target for the treatment of several neuropsychiatric disorders. Indeed, one of the most promising therapeutic applications for the D3 DAR is in the area of addiction and related disorders. […] These findings have been observed with a number of addictive substances including cocaine, amphetamine, nicotine, and alcohol. […] Antagonism of the D3 DAR may also be therapeutic in the treatment of schizophrenia or psychosis. […] Since the D3 DAR is expressed in areas of the CNS associated with the control of mood and emotion, it has been hypothesized that selective antagonism of the D3 DAR may be effective in treating psychosis without inducing the motor side effects typically seen with D2 DAR antagonists.
This part of the project aims to discover novel antagonist.
NIH Chemical Genomics Center [NCGC]
NIH Molecular Libraries Probe Centers Network [MLPCN]
Assay Submitter (PI): David Sibley, NINDS
Freshly passaged cells are plated in 1536 well white, solid bottom plates at a density of 1500 cells/well in 3microl of complete media. After an overnight incubation at 37 degrees C in 5% CO2, cells are loaded with 23nl of test compound from the compound library (as well as dopamine controls) using a 1536 pintool and incubated at 37 degrees C for 90 minutes. Two microliters of DiscoveRx reagent is then added to all cells, and they are incubated for an additional 30 - 60 minutes at room temperature. Following incubation, luminescence is measured on a ViewLux CCD-based luminometer reader using a 20 sec exposure time.
With CP(=O)(Nc1ccccc1F)Oc1ccccc1 (stereo not given) the max response, negative = inhibition was inactive: 11%.
CC(C)c1ccc(OP(C)(=O)Nc2ccc(SC(F)(F)F)cc2)cc1 (stereo not given) was tested, and the max response, negative = inhibition was inactive: 7.27%.
In the case of O=C(OCCN1CCN(CCOCc2ccccc2)CC1)C(O)(c1ccccc1)c1ccccc1, the max response, negative = inhibition is reported as inactive: -18.4%.
In the case of CCOC(=O)c1ccc(NP(C)(=O)Oc2ccc(F)cc2)cc1 (stereo not given), the max response, negative = inhibition is reported as inactive: 6.03%.
In the case of COc1ccc(OP(C)(=O)Nc2ccc(SC(F)(F)F)cc2)cc1 (stereo not given), the max response, negative = inhibition is reported as inactive: -8.96%.
For Cc1c([N+](=O)[O-])cc([N+](=O)[O-])c(Br)c1[N+](=O)[O-], the max response, negative = inhibition was inactive: 20%.
With CCN(CC)CCCOC(=O)C(O)(c1ccccc1)C1CCCCC1 (stereo not given) the max response, negative = inhibition was active: -73.9%.
For CP(=O)(Nc1ccccc1)Oc1ccc(F)cc1 (stereo not given), the max response, negative = inhibition was inactive: 7.05%.
For CCCCCOc1ccc(NP(C)(=O)Oc2ccc(Cl)cc2Cl)cc1 (stereo not given), the max response, negative = inhibition was inactive: -10.2%.
With COc1ccc(OP(C)(=O)Nc2cccc(Br)c2)cc1 (stereo not given) the max response, negative = inhibition was inactive: 18.2%.
For CN(C)CCOC(=O)C(O)(c1ccccc1)C1CCCCC1 (stereo not given), the max response, negative = inhibition was active: -77.1%.
In the case of COc1ccc(NP(C)(=O)Oc2ccccc2OC)cc1 (stereo not given), the max response, negative = inhibition is reported as inactive: 0.0694%.
With O=[N+]([O-])c1ccc(OP2(=O)COCCO2)cc1 (stereo not given) the max response, negative = inhibition was inactive: -24.3%.
For Cc1c(C(c2ccc3c(c2)OCO3)c2c(C)n(C)n(-c3ccccc3)c2=O)c(=O)n(-c2ccccc2)n1C.O=[N+]([O-])c1cc([N+](=O)[O-])c(O)c([N+](=O)[O-])c1, the max response, negative = inhibition was inactive: 13.1%.
In the case of CP(=O)(Nc1ccc(SC(F)(F)F)cc1)Oc1ccc(F)cc1 (stereo not given), the max response, negative = inhibition is reported as inactive: -13%.
For CCOP(C)(=S)SCC(=O)NC(C)(CC)C(=O)O (stereo not given), the max response, negative = inhibition was inactive: -7.74%.
In the case of CP(=O)(Nc1ccc2c(c1)OCCO2)Oc1ccccc1 (stereo not given), the max response, negative = inhibition is reported as inactive: -19.7%.
Cc1ccccc1NP(C)(=O)Nc1ccccc1C was tested, and the max response, negative = inhibition was inactive: 5.98%.
With COc1ccc(OP(C)(=O)Nc2ccc(Br)cc2)cc1 (stereo not given) the max response, negative = inhibition was inactive: 5.39%.
With CCN(CC)CC(O)COC(=O)C(O)(c1ccccc1)C1CCCCC1 (stereo not given) the max response, negative = inhibition was active: -77.3%.
In the case of O=C(OCCCN1CCCC1)C(O)(c1ccccc1)C1CCCCC1 (stereo not given), the max response, negative = inhibition is reported as active: -82.2%.
With COc1ccccc1OP(C)(=O)Nc1c(C)n(C)n(-c2ccccc2)c1=O (stereo not given) the max response, negative = inhibition was inactive: 21.2%.
For CCc1ccc(OP(C)(=O)Nc2cccnc2)cc1 (stereo not given), the max response, negative = inhibition was inactive: 18.3%.
CP(=O)(Oc1ccccc1)N1CCOC1=O (stereo not given) was tested, and the max response, negative = inhibition was inactive: -8.8%.
With CC(C)(C)c1ccc(OP(C)(=O)O)cc1 the max response, negative = inhibition was inactive: -6.06%.
With COc1ccccc1OP(C)(=O)Nc1ccccc1Br (stereo not given) the max response, negative = inhibition was inactive: 3.52%.
With CP(=O)(Nc1ccc(Cl)cc1)Oc1ccc(F)cc1 (stereo not given) the max response, negative = inhibition was inactive: 8.82%.
Nc1ccc2c(ccc3cccnc32)n1.O=[N+]([O-])c1cc([N+](=O)[O-])c(O)c([N+](=O)[O-])c1 was tested, and the max response, negative = inhibition was inactive: 2.9%.
In the case of CCOC(=O)c1ccc(NP(C)(=O)Oc2ccc(Cl)cc2)cc1 (stereo not given), the max response, negative = inhibition is reported as inactive: 6.25%.
For CP(=O)(OC12CC3CC(CC(C3)C1)C2)OC12CC3CC(CC(C3)C1)C2, the max response, negative = inhibition was inactive: 3.24%.
In the case of Cc1cc(C)cc(OP(C)(=O)Nc2cccc(C(F)(F)F)c2)c1 (stereo not given), the max response, negative = inhibition is reported as inactive: -6.63%.
In the case of COc1ccccc1OP(C)(=O)Nc1ccc(C)c(C)c1 (stereo not given), the max response, negative = inhibition is reported as inactive: 2.57%.
In the case of COc1ccc(OP(C)(=O)Nc2ccccc2Br)cc1 (stereo not given), the max response, negative = inhibition is reported as inactive: 8.41%.
In the case of CP(=O)(OCCOc1ccccc1)OCCOc1ccccc1, the max response, negative = inhibition is reported as inactive: -6.46%.
In the case of CP(=O)(Nc1ccc(Cl)cc1Cl)Oc1ccccc1 (stereo not given), the max response, negative = inhibition is reported as inactive: -12.2%.
CCCCCCCCCCCCCCCC1C[N+](C)(C)CCOP(C)(=O)O1 (stereo not given) was tested, and the max response, negative = inhibition was inactive: 0%.
With COc1ccccc1OP(C)(=O)Nc1ccc(Br)cc1 (stereo not given) the max response, negative = inhibition was inactive: 6.33%.
In the case of COc1ccc(OP(C)(=O)Nc2ccccn2)cc1 (stereo not given), the max response, negative = inhibition is reported as inactive: 1.58%.
CN(C)CCOC(=O)C(O)(c1ccccc1)C1CCCC1 (stereo not given) was tested, and the max response, negative = inhibition was inactive: -24.1%.
In the case of Cc1c(NP(C)(=O)Oc2ccc(C(C)C)cc2)c(=O)n(-c2ccccc2)n1C (stereo not given), the max response, negative = inhibition is reported as inactive: 16.1%.
With COc1ccccc1OP(C)(=O)Nc1ccc(C)cc1C (stereo not given) the max response, negative = inhibition was inactive: -6.94%.
CP(=O)(Nc1ccccn1)Oc1ccccc1 (stereo not given) was tested, and the max response, negative = inhibition was inactive: -0.961%.
For CCc1ccc(OP(C)(=O)O)cc1, the max response, negative = inhibition was inactive: 7.36%.
With CCN(CC)CCCOC(=O)C(O)(c1ccccc1)c1ccccc1 the max response, negative = inhibition was inactive: -0.2%.
With O=[N+]([O-])c1cc([N+](=O)[O-])c(Nc2cccnc2)c([N+](=O)[O-])c1 the max response, negative = inhibition was inactive: 0.176%.
With O=[N+]([O-])c1ccc2c(c1)C=Nc1ccccc1O2 the max response, negative = inhibition was inactive: -2.23%.
Cc1cccc(C)c1OP(C)(N)=O (stereo not given) was tested, and the max response, negative = inhibition was inactive: -3.43%.
In the case of CC(C)(C)c1ccc(OP(C)(=O)Nc2ccc(SC(F)(F)F)cc2)cc1 (stereo not given), the max response, negative = inhibition is reported as inactive: -18.1%.
Cc1ccc(NP(C)(=O)Oc2ccccc2)c(C)c1 (stereo not given) was tested, and the max response, negative = inhibition was inactive: 4.62%.
With COc1ccccc1OP(C)(=O)Nc1ccc(C)cc1 (stereo not given) the max response, negative = inhibition was inactive: 8.58%.
For CCOC(=O)c1ccc(NP(C)(=O)Oc2ccccc2)cc1 (stereo not given), the max response, negative = inhibition was inactive: 2.62%.
In the case of Cc1cc(C)cc(OP(C)(N)=O)c1 (stereo not given), the max response, negative = inhibition is reported as inactive: -4.55%.
COc1ccc(OP(C)(=O)Nc2cccc(F)c2)cc1 (stereo not given) was tested, and the max response, negative = inhibition was inactive: 9.36%.
With COc1ccccc1OP(C)(=O)Nc1cc(Cl)ccc1C (stereo not given) the max response, negative = inhibition was inactive: -4.28%.
For CP(=S)(Nn1cnnc1)Oc1ccccc1 (stereo not given), the max response, negative = inhibition was inactive: -16.8%.
CP(=O)(Nc1ccccc1Br)Oc1ccccc1 (stereo not given) was tested, and the max response, negative = inhibition was inactive: -13.5%.
COc1ccccc1OP(C)(=O)Nc1ccccc1 (stereo not given) was tested, and the max response, negative = inhibition was inactive: 0.826%.
CP(=O)(Oc1ccccc1)OC(c1ccccc1)C(F)(F)F (stereo not given) was tested, and the max response, negative = inhibition was inactive: -7.12%.
CP(=O)(Nc1ccc(SC(F)(F)F)cc1)Oc1ccc(Cl)cc1 (stereo not given) was tested, and the max response, negative = inhibition was inactive: -21.3%.
In the case of Cc1cccc(C)c1OP(C)(=O)Nc1ccc(SC(F)(F)F)cc1 (stereo not given), the max response, negative = inhibition is reported as inactive: 4.2%.
With Cc1cc(C)cc(OP(C)(=O)Nc2ccc(SC(F)(F)F)cc2)c1 (stereo not given) the max response, negative = inhibition was inactive: 10.7%.
In the case of CCc1ccc(OP(C)(=O)N2CCN(c3ccc([N+](=O)[O-])cc3)CC2)cc1 (stereo not given), the max response, negative = inhibition is reported as inactive: 4.9%.
For CP(=O)(NC(=O)Nc1ccccc1)Oc1ccccc1 (stereo not given), the max response, negative = inhibition was inactive: 6.49%.
O=[N+]([O-])c1cc([N+](=O)[O-])c(O)c([N+](=O)[O-])c1.c1ccc(Oc2ccncc2)cc1 was tested, and the max response, negative = inhibition was inactive: -19.4%.
CCOC(=O)c1ccc(NP(C)(=O)Oc2ccc(OC)cc2)cc1 (stereo not given) was tested, and the max response, negative = inhibition was inactive: 8.6%.
With CCOP(C)(=S)SCC(=O)NC(C)C(=O)O (stereo not given) the max response, negative = inhibition was inactive: -24.8%.
In the case of CP(=O)(Nc1ccccn1)Oc1ccc(Cl)cc1 (stereo not given), the max response, negative = inhibition is reported as inactive: 10.5%.
In the case of CN(Cc1cccnc1)C(=O)COc1ccc(Cl)c(Cl)c1.O=[N+]([O-])c1cc([N+](=O)[O-])c(O)c([N+](=O)[O-])c1, the max response, negative = inhibition is reported as inactive: 7.1%.
For O=[N+]([O-])c1cc([N+](=O)[O-])c(Nc2nnnn2CCO)c([N+](=O)[O-])c1, the max response, negative = inhibition was inactive: -21.8%.
In the case of CN1CCCCC1COC(=O)C1(O)c2ccccc2CCc2ccccc21 (stereo not given), the max response, negative = inhibition is reported as inactive: -9.96%.
COc1ccccc1OP(C)(=O)Nc1c(C)cccc1C (stereo not given) was tested, and the max response, negative = inhibition was inactive: -16.2%.
In the case of CP(=O)(Nc1ccc(SC(F)(F)F)cc1)Oc1ccccc1 (stereo not given), the max response, negative = inhibition is reported as inactive: -20.1%.
In the case of CCCOc1ccc(NP(C)(=O)Oc2ccc(Cl)cc2)cc1 (stereo not given), the max response, negative = inhibition is reported as inactive: 6.07%.
CC1=NCCc2c1[nH]c1ccccc21.O=[N+]([O-])c1cc([N+](=O)[O-])c(O)c([N+](=O)[O-])c1 was tested, and the max response, negative = inhibition was inactive: 0%.
In the case of COc1ccccc1OP(C)(=O)Nc1cccc(Br)c1 (stereo not given), the max response, negative = inhibition is reported as inactive: 1.41%.
CCOC(=O)c1ccc(NP(C)(=O)Oc2cc(C)cc(C)c2)cc1 (stereo not given) was tested, and the max response, negative = inhibition was inactive: -12.1%.
For Cc1cc(C)cc(OP(C)(=O)Nc2ccc(C)cc2C)c1 (stereo not given), the max response, negative = inhibition was inactive: -12.7%.
For Cc1ccc(C)c(NP(C)(=O)Oc2ccccc2)c1 (stereo not given), the max response, negative = inhibition was inactive: 5.41%.
CP(=O)(Nc1cccc(Br)c1)Oc1ccccc1 (stereo not given) was tested, and the max response, negative = inhibition was inactive: -5.04%.
With Cc1cc(C)cc(OP(C)(=O)Nc2ccccn2)c1 (stereo not given) the max response, negative = inhibition was inactive: 14%.

From PubChem BioAssay AID652054 (National Center for Advancing Translational Sciences (NCATS), 2013)
% is set by controls: 0 for no effect and ±100 for the full control effect.
